The test has as its target T1, Arginase (Plasmodium falciparum, UniProt Q8I384).
T1 sequence (Q8I384 whole entry): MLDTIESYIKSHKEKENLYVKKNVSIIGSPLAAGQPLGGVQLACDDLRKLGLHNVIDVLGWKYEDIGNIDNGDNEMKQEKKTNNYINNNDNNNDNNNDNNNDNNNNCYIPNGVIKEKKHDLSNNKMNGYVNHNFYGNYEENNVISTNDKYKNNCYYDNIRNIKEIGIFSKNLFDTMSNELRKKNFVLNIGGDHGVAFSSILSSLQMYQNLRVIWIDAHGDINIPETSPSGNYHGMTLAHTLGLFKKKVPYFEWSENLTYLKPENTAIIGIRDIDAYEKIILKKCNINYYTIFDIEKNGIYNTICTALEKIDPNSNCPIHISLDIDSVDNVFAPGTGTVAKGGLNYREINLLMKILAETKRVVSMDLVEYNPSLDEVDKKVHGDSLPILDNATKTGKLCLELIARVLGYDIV
Kind of test: Inhibition of Plasmodium falciparum arginase using L-arginine as substrate by colorimetric assay.

For the molecule `NC(CCCCB(O)O)(C(=O)O)C(F)F` (racemic), the affinity corresponds to a Ki of 2000 µM.

One may read the Ki as a measure of affinity in units of concentration, obtained from inhibition or displacement. Low values mean tighter binding, high ones weaker binding.

Source of the values: ChEMBL document CHEMBL1811917 (J Med Chem, 2011).
